{
  "source": "patent US8058510B2",
  "about": "“Method and means to modulate programmed cell death in eukaryotic cells” (Bayer Bioscience N.V., priority 1998, dated 2011)",
  "molecular_target": "APP (Arabidopsis thaliana, UniProt Q11207)",
  "assay": "Poly(ADP-ribose) polymerase activity assay in total protein extracts of yeast expressing APP",
  "details": "extract of DY(pV8SPA) grown on galactose, FIG. 5A lane 1; majority in 10-15-mer",
  "data": [
    {"molecule": "APP: NAP protein of Arabidopsis thaliana (SEQ ID No 6), non-conventional PARP, expressed in yeast (protein, listed as Arabidopsis thaliana) MANKLKVDELRLKLAERGLSTTGVKAVLVERLEEAIAEDTKKEESKSKRKRNSSNDTYESNKLIAIGEFRGMIVKELREEAIKRGLDTTGTKKDLLERLCNDANNVSNAPVKSSNGTDEAEDDNNGFEEEKKEEKIVTATKKGAAVLDQWIPDEIKSQYHVLQRGDDVYDAILNQTNVRDNNNKFFVLQVLESDSKKTYMVYTRWGRVGVKGQSKLDGPYDSWDRAIEIFTNKFNDKTKNYWSDRKEFIPHPKSYTWLEMDYGKEENDSPVNNDIPSSSSEVKPEQSKLDTRVAKFISLICNVSMMAQHMMEIGYNANKLPLGKISKSTISKGYEVLKRISEVIDRYDRTRLEELSGEFYTVIPHDFGFKKMSQFVIDTPQKLKQKIEMVEALGEIELATKLLSVDPGLQDDPLYYHYQQLNCGLTPVGNDSEEFSMVANYMENTHAKTHSGYTVEIAQLFRASRAVEADRFQQFSSSKNRMLLWHGSRLTNWAGILSQGLRIAPPEAPVTGYMFGKGVYFADMFSKSANYCYANTGANDGVLLLCEVALGDMNELLYSDYNADNLPPGKLSTKGVGKTAPNPSEAQTLEDGVVVPLGKPVERSCSKGMLLYNEYIVYNVEQIKMRYVIQVKFNYKH", "values": [
      {"measurement": "length of poly(ADP-ribose) polymers synthesized", "value": "up to 40 residues"}
    ]}
  ]
}
